Experimental data reported in patent US20250161419A1, “SERPIN PEPTIDES AND METHODS OF USING THE SAME” (SERPIN PHARMA, LLC, priority 2022, published 2025).

Assays:
phospho-ERK1/2 = assay: Cell signaling analysis in PC12 cells, immunoblot of phospho-ERK1/2; type: cell-based, rat
Method: Cell signaling analysis: Rat PC12 cells were purchased from ATCC (CRL-1721). PC12 cells were maintained in high glucose DMEM (Gibco, USA) containing 10% heat-inactivated FBS (Gibco, USA), 5% HyClone heat-inactivated horse serum (Cytiva, USA), penicillin (100 units/ml) and streptomycin ([…]) in 6-well plates that were pre-coated with 0.01 mg/ml type IV collagen (Sigma-Aldrich, St. Louis, MO, USA). Cells were transferred to serum-free medium (SFM) 4 h prior to adding effectors, and then treated with SP163M (2.4, 24 or 240 nM); EI-tPA (12 nM), NGF (0.36 nM), or vehicle (PBS) for 10 min. In some cases, cells were pre-incubated with the competitive antagonist of LRP1, GST-RAP (150 nM) for 15 min or electroporated using the Rat Neuron Nucleofector Amaxa Kit (Lonza Biosciences) and incubated with siRNA to silence LRP1 expression (siLRP1; M-094191-01-0010, Dharmacon) for 48 h. Control cells were transfected with non-targeting control (NTC) siRNA (NTC; D-001810-10-05, Dharmacon). […] Equal amounts of protein from cell lysates (20 μg), as determined by BCA Protein Assay (ThermoFisher Scientific, Waltham, MA, USA), were subjected to 10% SDS-PAGE and electro-transferred to nitrocellulose membranes. […]

TSLP = assay: Poly IC induced TSLP in HaCat human keratinocytes (ELISA); type: cell-based; details: Poly IC 50 μg/ml 24 hours, SP163M 100 μg/ml, p=0.0045 vs vehicle
Method: (§1) Cells were pretreated with either vehicle or SP163M (100 μg/ml). TSLP was measured in the supernatant via ELISA (p=0.0045 vs. vehicle treated Poly IC induced cells). FIG. 10B: HaCat cells treated as in FIG. 10A were analyzed via the CellTiter-Glo® Luminescent Cell Viability Assay by Promega. The percent change from untreated (no Poly IC) cells were compared between SP163M vs. vehicle treated poly IC induced control (p=0.0068). FIG. 10C: HaCat cells were insulted with TNFα and immunoblotted for phospho-IkBa (Ser32). GAPDH served as a loading control and signal normalization.
In this model of dermal inflammation, SP163M decreased a key cytokine (TSLP) that controls allergic responses, and protected cells from death.

phospho-IkBa (Ser32) = assay: TNFα induced phosphorylation of IκBα in HaCat cells (immunoblot); type: cell-based, human
Method: as §1
TNFα treatment led to phosphorylation of IκBα (inhibitor of nuclear factor kappa B), which then activated NFκB. Therefore, in a model of skin inflammation, SP163M shut down a key inflammatory pathway (FIG. 10C).

CCCC[C@H](NC(=O)[C@H](CC(C)C)NC(=O)[C@H](Cc1ccccc1)NC(=O)[C@@H](NC(=O)[C@H](Cc1ccccc1)NC(=O)[C@@H]1CCCN1C(=O)[C@H](CCCCN)NC(=O)[C@H](CC(N)=O)NC(=O)[C@H](Cc1ccccc1)NC(=O)[C@H](CCCCN)NC(=O)[C@@H](NC(C)=O)C(C)C)C(C)C)C(=O)N[C@H](C(=O)N[C@@H](CCC(=O)O)C(=O)N[C@@H](CCC(N)=O)C(=O)N[C@@H](CC(N)=O)C(=O)N[C@H](C(=O)N[C@@H](CCCCN)C(N)=O)[C@@H](C)O)[C@@H](C)CC [SP163M, Ac-VKFNKPFVFLNIeIEQNTK-NH2]
activation of ERK1/2 in cells transfected with LRP1-specific siRNA (phospho-ERK1/2; 48 h after transfection): ERK1/2 was not activated | activation of phospho-ERK1/2 after 10 min, with or without RAP (phospho-ERK1/2; SP163M 24 or 240 nM, NGF 0.36 nM, RAP 150 nM pretreatment 15 min): activated Akt and EKR1/2 in PC12 cells after 10 min that was blocked by the addition of the 39 kDa LRP1 antagonist, RAP | TSLP in supernatant (TSLP): decrease of both TSLP | phosphorylation of IκBα by TNF-α (phospho-IkBa (Ser32)): inhibited the phosphorylation of IκBα by TNF-α
